In US11752210B2, “Sensitizing composition using electromagnetic waves for thermal therapy of cancers, and cancer therapy using same” (JINIS CO., LTD., priority 2013, dated 2023):

Assay: In vivo accumulation of metal ion in normal and tumorous tissue, ICP-MS (Test Example 5)
Parameters: species or system BALB/c athymic nude mice; concentration of iron ion (ICP-MS): unit not given here
Conditions: 1 mg/kg i.v., after 24 hr
Experimental: In order to evaluate the accumulation of the administered metal ion in tumorous tissue through in vivo animal testing, tumor xenograft animal models were manufactured as follows. Specifically, a lung cancer cell line NCI-H460-luc2 (Califer Life Sciences) was cultured, and 5×10^6 cells were subcutaneously injected into 6- to 8-week-old female BALB/c athymic nude mice (Damul Science), and the mice were bred for about 10 days so as to grow tumorous tissue to a size of 100 mm^3 or more, yielding the tumor xenograft animal models.
Into the established tumor xenograft BALB/c athymic nude mice, each of the metal ion aqueous solutions of Test Example 1, that is, magnesium sucrose, iron sucrose, and iron dextran, was diluted to a concentration of 0.2 mg/ml and then intravenously injected in an amount of 0.1 ml so as to reach a dose of 1 mg/kg. After 24 hr, in order to carry out inductively coupled plasma mass spectrometry (ICP-MS), 1 g of each tissue was ground using a tissue grinder in an ice bath, and 1 ml of the ground solution was dried at −60° C. in a vacuum of 7 μmHg for 24 hr. The dried powder was added with 2 ml of 6N HCl, placed in a sealed glass reactor, and cultured in an incubator at 55° C. After 12 hr or longer, each sample was mixed in a vortex and then centrifuged at 1,000 rpm for 15 min, and the supernatant was dried with nitrogen gas, added with 1 ml of 0.01N HCl, mixed in a vortex, and then centrifuged at 1,000 rpm for 15 min. The supernatant was recovered, and the concentrations of the metal ions in the normal tissue and the tumorous tissue were measured through ICP-MS (Varian 800-MS, Palo Alto, US).

Fold Increase of iron ion vs saline (Brain): 1.62
concentration of iron ion (ICP-MS) (Brain): 36.4 ± 3.4
Fold Increase of iron ion vs saline (Heart): 2.86
concentration of iron ion (ICP-MS) (Heart): 92.1 ± 5.8
Fold Increase of iron ion vs saline (Kidney): 1.05
concentration of iron ion (ICP-MS) (Kidney): 59.8 ± 15.6
Fold Increase of iron ion vs saline (Liver): 1.55
concentration of iron ion (ICP-MS) (Liver): 115.5 ± 17.3
Fold Increase of iron ion vs saline (Muscle): 2.23
concentration of iron ion (ICP-MS) (Muscle): 65.7 ± 30.4
Fold Increase of iron ion vs saline (Stomach): 1.95
concentration of iron ion (ICP-MS) (Stomach): 54.1 ± 12.8
concentration of iron ion (ICP-MS) (Tumor): 46.8 ± 6.6
Fold Increase of iron ion vs saline (Tumor, 1 mg/kg): ≥ 3.4
Fold Increase of iron ion vs saline (Tumor, listed as Fe-Dextran, 1 mg/kg): 3.47
Substance: Iron dextran
